Experimental data published in ChEMBL document CHEMBL4840326, “Discovery of an M-Substituted N-Cyclopropylmethyl-7α-phenyl-6,14-endoethanotetrahydronorthebaine as a Selective, Potent, and Orally Active κ-Opioid Receptor Agonist with an Improved Central Nervous System Safety Profile” (2021).
pKi: −log10 of the molar value.

Chains of the proteins cited; added tags and fusions are not shown.
UniProt P33535, whole entry: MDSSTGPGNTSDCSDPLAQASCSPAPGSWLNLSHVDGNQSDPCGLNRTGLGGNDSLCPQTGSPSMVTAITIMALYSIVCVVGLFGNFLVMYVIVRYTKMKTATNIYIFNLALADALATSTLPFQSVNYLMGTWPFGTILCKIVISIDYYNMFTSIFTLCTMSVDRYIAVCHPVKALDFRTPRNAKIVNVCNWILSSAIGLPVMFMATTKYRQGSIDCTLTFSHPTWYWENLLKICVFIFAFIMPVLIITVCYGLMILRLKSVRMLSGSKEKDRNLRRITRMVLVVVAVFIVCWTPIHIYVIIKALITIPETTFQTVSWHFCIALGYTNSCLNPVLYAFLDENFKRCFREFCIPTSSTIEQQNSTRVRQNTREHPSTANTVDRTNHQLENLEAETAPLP
UniProt P33533, whole entry: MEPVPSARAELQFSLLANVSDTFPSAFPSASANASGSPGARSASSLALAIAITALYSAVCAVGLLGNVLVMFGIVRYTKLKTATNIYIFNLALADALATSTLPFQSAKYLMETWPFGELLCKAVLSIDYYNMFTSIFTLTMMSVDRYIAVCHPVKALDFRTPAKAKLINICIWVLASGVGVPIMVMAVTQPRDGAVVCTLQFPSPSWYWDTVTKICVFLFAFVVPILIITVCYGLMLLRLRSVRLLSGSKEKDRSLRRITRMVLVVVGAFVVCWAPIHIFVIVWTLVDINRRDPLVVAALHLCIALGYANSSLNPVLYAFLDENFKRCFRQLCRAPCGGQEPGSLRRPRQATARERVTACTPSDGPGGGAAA
UniProt P41145, whole entry: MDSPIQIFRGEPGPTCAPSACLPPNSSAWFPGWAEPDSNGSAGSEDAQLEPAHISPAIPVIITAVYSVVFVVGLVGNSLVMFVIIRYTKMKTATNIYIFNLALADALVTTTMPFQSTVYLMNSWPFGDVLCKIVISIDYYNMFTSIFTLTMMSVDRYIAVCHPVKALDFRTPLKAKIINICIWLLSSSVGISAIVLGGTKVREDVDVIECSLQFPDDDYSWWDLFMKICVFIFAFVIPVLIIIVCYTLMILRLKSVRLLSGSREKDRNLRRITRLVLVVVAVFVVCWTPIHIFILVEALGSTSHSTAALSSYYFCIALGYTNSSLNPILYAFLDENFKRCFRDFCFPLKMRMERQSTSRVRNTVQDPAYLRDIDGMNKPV

Key:
Mu-type opioid receptor = Mu-type opioid receptor (Rattus norvegicus, UniProt P33535); assay: Displacement of [3H]DAMGO from rat mu opioid receptor expressed in CHO cell membrane measured after 30 mins by liquid scintillation counting method
[1] = biological target: Delta-type opioid receptor (Rattus norvegicus, UniProt P33533); assay: Displacement of [3H]DPDPE from rat delta opioid receptor expressed in CHO cell membrane measured after 30 mins by liquid scintillation counting method
[2] = biological target: Kappa-type opioid receptor (Homo sapiens, UniProt P41145); assay: Displacement of [3H]U69,593 from human kappa opioid receptor expressed in CHO cell membrane measured after 30 mins by liquid scintillation counting method

SMILES | pKi (Mu-type opioid receptor) | pKi [1] | pKi [2]
COc1ccc2c3c1O[C@H]1[C@@]4(OC)CC[C@@]5(C[C@@H]4c4cccc(NCc6ccc(C)cc6)c4)[C@@H](C2)N(CC2CC2)CC[C@]315 | 7.69 | 5.56 | 7.34
COc1ccc(CNc2cccc([C@H]3C[C@@]45CC[C@]3(OC)[C@@H]3Oc6c(O)ccc7c6[C@@]34CCN(CC3CC3)[C@@H]5C7)c2)cc1 | 9.53 | 10.14 | 10.80
COc1ccc2c3c1O[C@H]1[C@@]4(OC)CC[C@@]5(C[C@@H]4c4cccc(NCc6cccc(C)c6)c4)[C@@H](C2)N(CC2CC2)CC[C@]315 | 7.61 | 6.23 | 7.25
